Data on one molecule can be found in US20250282874A1 (SUZHOU TRANSCENTA THERAPEUTICS, published 2025).

By IC50 is commonly meant the point on the concentration scale where inhibition reaches its midpoint.

Assay [1] addresses human IL-1R on HEK293-CD40L reporter cells (human). The assay can be described thus: cell-based or functional assay.
Assay [2] deals with T1, Human IL-1RI-his (Sino Biological, Cat #10126-H08H) (human, UniProt P14778 18-332).
T1 construct: not shown: His tag
T1 sequence (looked up): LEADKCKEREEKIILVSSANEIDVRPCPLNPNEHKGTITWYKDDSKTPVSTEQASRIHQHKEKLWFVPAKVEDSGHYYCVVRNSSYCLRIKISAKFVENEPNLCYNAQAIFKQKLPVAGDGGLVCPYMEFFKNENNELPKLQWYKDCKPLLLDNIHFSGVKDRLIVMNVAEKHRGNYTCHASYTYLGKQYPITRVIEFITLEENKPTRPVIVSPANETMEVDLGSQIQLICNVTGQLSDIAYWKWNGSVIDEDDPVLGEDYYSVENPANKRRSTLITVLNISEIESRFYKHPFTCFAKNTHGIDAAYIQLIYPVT
In words: competition ELISA, human IL-1β coated, Human IL-1RI-his added with the titrated sample, anti-His-HRP, OD450.

B1: IL-1RA protein (Sino Biological, Cat #10123-HNAE) (ligand, UniProt P18510 26-177, looked up)
chain: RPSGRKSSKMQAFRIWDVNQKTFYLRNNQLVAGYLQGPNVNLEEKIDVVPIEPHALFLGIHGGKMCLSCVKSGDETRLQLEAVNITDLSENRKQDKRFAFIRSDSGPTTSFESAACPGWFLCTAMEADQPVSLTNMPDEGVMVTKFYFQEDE
notes: also called IL-IRA protein
On to B1, for which the “IC50, SEAP at OD 620 nm, HEK-Blue CD40L reporter cells stimulated with human IL-1β” value in assay [1] stood at 0.524 nM. This molecule also yielded a half-inhibitory concentration (IC50) in assay [2] of 8.68 nM.
